Our source for the Potency values is PubChem BioAssay (Tox21).

By UniProt entry, the sequences of proteins in these tests, tags left out.
UniProt P14416, whole entry, looked up: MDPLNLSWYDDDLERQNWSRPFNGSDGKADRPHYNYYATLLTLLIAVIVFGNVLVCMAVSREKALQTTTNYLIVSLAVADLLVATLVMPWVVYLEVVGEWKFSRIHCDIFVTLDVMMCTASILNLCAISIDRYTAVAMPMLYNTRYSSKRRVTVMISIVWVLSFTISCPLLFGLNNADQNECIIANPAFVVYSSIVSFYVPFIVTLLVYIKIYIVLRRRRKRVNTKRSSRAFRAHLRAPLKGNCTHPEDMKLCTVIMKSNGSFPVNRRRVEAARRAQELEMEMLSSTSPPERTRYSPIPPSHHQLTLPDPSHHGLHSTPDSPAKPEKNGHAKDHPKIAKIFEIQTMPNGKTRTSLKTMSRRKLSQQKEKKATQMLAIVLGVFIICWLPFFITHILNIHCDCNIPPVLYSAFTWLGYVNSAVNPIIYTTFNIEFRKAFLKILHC
UniProt P28223, whole entry, looked up: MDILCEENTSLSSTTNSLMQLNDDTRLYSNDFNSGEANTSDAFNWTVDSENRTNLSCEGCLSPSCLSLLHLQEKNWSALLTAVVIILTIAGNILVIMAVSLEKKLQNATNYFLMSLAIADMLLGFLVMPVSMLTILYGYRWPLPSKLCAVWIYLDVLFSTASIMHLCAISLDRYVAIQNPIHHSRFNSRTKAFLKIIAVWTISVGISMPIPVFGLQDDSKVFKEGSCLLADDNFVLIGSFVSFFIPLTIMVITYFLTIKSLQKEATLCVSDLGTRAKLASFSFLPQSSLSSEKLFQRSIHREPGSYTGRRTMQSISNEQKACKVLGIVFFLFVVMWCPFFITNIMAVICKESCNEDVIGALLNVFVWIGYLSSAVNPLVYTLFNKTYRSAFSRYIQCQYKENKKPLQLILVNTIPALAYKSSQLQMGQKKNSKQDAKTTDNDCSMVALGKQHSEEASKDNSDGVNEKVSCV

Experiment [1] deals with D(2) dopamine receptor (Homo sapiens) (UniProt P14416). Briefly: Dopamine D2 receptor (DRD2) small molecule antagonists, cell-based qHTS assay (AID 1963595; active means well fitted inhibition curve with a large enough effect in the signal ratio in the repeat runs, with a control signal flat; the % refers to the signal ratio). As to conditions: HEK293-DRD2 cAMP HTRF antagonist mode. The source says:
(§1) National Center for Advancing Translational Sciences [NCATS]
(§2) Division of Preclinical Innovation [DPI]
(§3) U.S. Environmental Protection Agency [EPA]
(§4) National Institutes of Environmental Health Sciences [NIEHS]
(§5) National Toxicology Program [NTP]
(§6) U.S. Food and Drug Administration [FDA]
DRD2 is the D2 subtype of the dopamine receptor, which is coupled to Gi subtype of G protein-coupled receptor. This G protein-coupled receptor inhibits adenylyl cyclase activity. The DRD2-HEK293 cell line stably expressing D2 dopamine receptor can be used for screening agonists and antagonists of interactions between D2 and its ligands. The Hek293-DRD2 cAMP assay is based on HTRF technology. It measures changes of cAMP accumulation in response to Gi coupled GPCR activation or inhibition.
(§7) Tox21 Assay Protocol Summary:
DRD2-Hek293 cells were dispensed at 600 cells/3uL/well in 1536-well white plates using a Multidrop Dispenser. After the assay plates were incubated at a 37 C/5% CO2 incubator for 24 h, 1 uL of Ro20-1724 at final concentration of 0.1 mM was transferred to the assay plate by a Flying Reagent Dispenser. Following Ro20-1724 addition, 23 nL of compound dissolved in DMSO, positive controls or DMSO only was added to the assay plates via Wako pintool station. […] The fluorescence intensity in the plates was measured at 340 nm excitation and 665 & 620 nm emission by an Envision plate reader.

Experiment [2] deals with 5-hydroxytryptamine receptor 2A (Homo sapiens) (UniProt P28223). Briefly: 5-hydroxytryptamine receptor 2A (HTR2A) small molecule antagonists, cell-based qHTS assay (AID 1963586). Further: nearly all actives have a fitted effect of over 45% in size. As to conditions: HTR2A-CHO cells, DOI-induced calcium flux, fluorescence.
From the text: as §1, §2, §3, §4, §5, §6
The HTR2A receptor is a subtype of the 5-HT2 receptor that belongs to the serotonin receptor family and is a G protein-coupled receptor (GPCR). The HTR2A-CHO cell line stably expressing human 5-hydroxytryptamine receptor 2A (HTR2A) can be used for screening antagonists of interactions between 5-HT2 and its ligands. The HTR2A-CHO calcium flux assay is a homogeneous fluorescence-based assay for detecting the intracellular calcium level using FDSS kinetic plate reader system.
as §7
HTR2A-CHO cells were dispensed at 2000 cells/3uL/well in 1536-well black-clear bottom plates using a Multidrop Dispenser. After the assay plates were incubated at a 37 C/5% CO2 incubator for 18 h, 3 uL of Dye Loading Buffer was transferred to the assay plate by a Flying Reagent Dispenser. The assay plates were incubated at 37 C for 1h. For antagonist mode, 23 nL of compounds dissolved in DMSO, positive controls or DMSO only was transferred to the assay plate by a pin tool. After 5 min incubation at room temperature, 1.5 uL of 4-Iodo-2,5-dimethoxy-alpha-methylbenzeneethanamine hydrochloride (DOI) at 4nM was added to each well. The fluorescence intensity in the plates was measured using FDSS 7000EX kinetic plate reader for 3 min at 1 sec intervals.
In general terms: In qHTS, concentration-response curves come from the screen itself.

Experiment [3] shares this target. Briefly: 5-hydroxytryptamine receptor 2A (HTR2A) small molecule agonists, cell-based qHTS assay (AID 1963587). Further: nearly all actives have a fitted effect of over 30% in size. To be noted: HTR2A-CHO cells, calcium flux fluorescence, agonist mode. The essentials:
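Kinetic calcium-flux fluorescence (2 min, 1 sec intervals) after compound addition in agonist mode. HTR2A-CHO cells were cultured 18 h, then dye-loaded 1 h at 37 C.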

This is a selection; strong and weak results do not stand in their true shares. Records with an inconclusive call do not appear. Active and inactive are the calls of the source. Unless noted, the call rests on the fitted dose curve.
Potency means the concentration at half of the fitted maximal effect.

Turning to `CN1CCc2cc(Cl)c(O)cc2[C@H]2c3ccccc3CC[C@@H]21`, the Potency in experiment [1] was active: 18800 nM. `CCCN1CCC[C@@H]2Cc3[nH]ncc3C[C@H]21`: the Potency in experiment [2] is active: 2050 nM; in experiment [3], active: 338 nM. For `Clc1cccc(N2CCNCC2)c1`, in that order: active: 23.1 nM and active: 26.8 nM. Take `COc1ccc2[nH]cc(CCN(C(C)C)C(C)C)c2c1`: the Potency in experiment [2] was active: 1.4 nM; in experiment [3], active: 2 nM.
